By UniProt entry, the sequences of proteins in these tests, tags left out. Where a name states a change or a piece, a line headed by the entry shows the natural chain unless it says otherwise.
UniProt Q15116: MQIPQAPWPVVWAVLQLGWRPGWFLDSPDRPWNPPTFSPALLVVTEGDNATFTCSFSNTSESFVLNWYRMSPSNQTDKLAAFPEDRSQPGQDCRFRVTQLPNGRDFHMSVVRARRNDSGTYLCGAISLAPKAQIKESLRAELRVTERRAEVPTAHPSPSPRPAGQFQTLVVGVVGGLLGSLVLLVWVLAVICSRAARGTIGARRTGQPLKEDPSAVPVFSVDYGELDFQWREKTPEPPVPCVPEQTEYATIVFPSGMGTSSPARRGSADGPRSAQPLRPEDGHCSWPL
UniProt Q9NZQ7: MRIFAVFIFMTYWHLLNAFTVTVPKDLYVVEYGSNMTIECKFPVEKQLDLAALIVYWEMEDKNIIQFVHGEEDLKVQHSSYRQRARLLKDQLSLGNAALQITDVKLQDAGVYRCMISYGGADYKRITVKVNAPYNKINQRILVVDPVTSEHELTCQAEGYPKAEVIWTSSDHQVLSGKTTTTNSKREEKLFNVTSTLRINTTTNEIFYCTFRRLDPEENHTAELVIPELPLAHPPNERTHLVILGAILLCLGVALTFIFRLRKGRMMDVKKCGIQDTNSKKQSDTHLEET

According to ChEMBL document CHEMBL6087473, “Novel PD-L1/VISTA Dual Inhibitor as Potential Immunotherapy Agents” (J Med Chem, 2025):

Biological target: Programmed cell death protein 1/Programmed cell death 1 ligand 1 (Homo sapiens) (UniProt Q15116+Q9NZQ7)
Assay: Molecular glue activity at PD-1/PD-L1 interaction in human NCI-H292 cells assessed as inhibition of protein complex incubated for 48 hrs by immunofluorescence based analysis
Format: cell-based
Conditions: dose 0.5-2 µM

Q: With COc1cc(CN[C@@H](CO)C(=O)O)nc(Nc2cccc(-c3ccccc3)c2C)n1 as the compound, how does the inhibition read?
A: The inhibition was “Dose-dependent-effect”.
